# Results: patent US9205121B2, “Echinacea formulation” (Integria Healthcare (Australia) PTY LTD, priority 2004, dated 2015)
# Tested on: Caco-2 cell monolayers
# Details: observed by the present inventors
# Text: Such monolayers are used to model the absorption of compounds across the intestinal barrier.
substance,measurement,value
echinacoside,passage (permeability) across Caco-2 cell monolayers,very poor passage
